# In PubChem BioAssay AID588456 (National Center for Advancing Translational Sciences (NCATS), 2011):
# Chains of the proteins cited; added tags and fusions are not shown.
# UniProt O89049, whole entry: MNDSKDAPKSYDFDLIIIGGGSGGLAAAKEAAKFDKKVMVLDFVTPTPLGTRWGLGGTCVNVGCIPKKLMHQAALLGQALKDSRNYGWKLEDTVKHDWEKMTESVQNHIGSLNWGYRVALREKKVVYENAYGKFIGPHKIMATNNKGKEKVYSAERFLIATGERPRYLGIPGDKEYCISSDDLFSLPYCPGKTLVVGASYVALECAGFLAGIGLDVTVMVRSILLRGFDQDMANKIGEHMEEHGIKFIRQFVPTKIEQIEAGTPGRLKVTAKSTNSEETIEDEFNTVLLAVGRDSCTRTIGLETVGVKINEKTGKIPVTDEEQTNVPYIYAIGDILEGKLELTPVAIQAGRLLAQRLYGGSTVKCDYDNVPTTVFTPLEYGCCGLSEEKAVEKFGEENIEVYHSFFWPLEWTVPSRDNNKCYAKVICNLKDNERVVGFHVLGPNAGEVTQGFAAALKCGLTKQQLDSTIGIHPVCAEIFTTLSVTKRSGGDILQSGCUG
# The entries are a selection whose mix differs from that of the whole data set. Activity calls are given as the source filed them. Calls follow the shape of the dose curve; as a rule, active = well fitted inhibition curve with a large enough effect; inconclusive = small, poorly fitted or top-dose-only effect; inactive = no such curve, though single readings can be large or run the other way.
# Target: Thioredoxin reductase 1, cytoplasmic (Rattus norvegicus) (UniProt O89049)
# Assay: qHTS Assay for Substrates of Mammalian Selenoprotein Thioredoxin Reductase 1 (TrxR1): qHTS; also: nearly all actives have a fitted effect of over 50% in size
# Details: purified TrxR1 substrate turnover, NADPH consumption readout; at 114 µM (top of the series) unless noted
# % is scaled to controls: 0 for no effect and ±100 for the full control effect.
row,Structure (SMILES),"activity change, negative = substrate turnover"
1,CC1=NCCc2c1[nH]c1ccccc21.O=[N+]([O-])c1cc([N+](=O)[O-])c(O)c([N+](=O)[O-])c1,inactive: 0.862%
2,Cc1ccc(C)c(NP(C)(=O)Oc2ccccc2)c1 (stereo not given),inactive: -9.04%
3,CP(=O)(Nc1cccc(Br)c1)Oc1ccccc1 (stereo not given),inactive: -5.8%
4,Cc1cc(C)cc(OP(C)(=O)Nc2ccccn2)c1 (stereo not given),inactive: 9.58%
5,COc1ccccc1OP(C)(=O)Nc1cccc(Br)c1 (stereo not given),inactive: 1.52%
6,CCOC(=O)c1ccc(NP(C)(=O)Oc2cc(C)cc(C)c2)cc1 (stereo not given),inactive: -8.8%
7,Cc1cc(C)cc(OP(C)(=O)Nc2ccc(C)cc2C)c1 (stereo not given),inactive: 9.38% [at 57.1 µM]
8,O=[N+]([O-])c1cc([N+](=O)[O-])c(-c2cnn(-c3ccccc3)c2)c([N+](=O)[O-])c1,inactive: 2.57% [at 57.1 µM]
9,Cc1nc2ccc3ccccc3c2s1.O=[N+]([O-])c1cc([N+](=O)[O-])c(O)c([N+](=O)[O-])c1,inactive: -9.28% [at 57.1 µM]
10,CN1CCCCC1COC(=O)C1(O)c2ccccc2CCc2ccccc21 (stereo not given),inactive: 1.39% [at 0.0914 µM]
11,COc1ccccc1OP(C)(=O)Nc1c(C)cccc1C (stereo not given),inactive: -10.5%
12,CP(=O)(Nc1ccc(SC(F)(F)F)cc1)Oc1ccccc1 (stereo not given),inactive: -1.11%
13,CCCOc1ccc(NP(C)(=O)Oc2ccc(Cl)cc2)cc1 (stereo not given),inactive: -6.68%
14,O=[N+]([O-])c1cc([N+](=O)[O-])c(Nc2nnnn2CCO)c([N+](=O)[O-])c1,inactive: -11.8% [at 57.1 µM]
15,CC1=C2N=C(C=C3N=C(C(C)=C4[N-][C@@](C)([C@@H]5N=C1[C@](C)(CCC(=O)NC[C@@H](C)OP(=O)([O-])O[C@H]1[C@@H](O)[C@@H](n6cnc7cc(C)c(C)cc76)O[C@@H]1CO)[C@H]5CC(N)=O)[C@@](C)(CC(N)=O)[C@@H]4CCC(N)=O)[C@@](C)(CC(N)=O)[C@@H]3CCC(N)=O)C(C)(C)[C@@H]2CCC(N)=O.[C-]#N.[Co+3],inactive: -9.72%
16,CP(=S)(Nn1cnnc1)Oc1ccccc1 (stereo not given),inactive: 2.55% [at 57.1 µM]
17,CP(=O)(Nc1ccccc1Br)Oc1ccccc1 (stereo not given),inactive: 11.7% [at 57.1 µM]
18,COc1ccccc1OP(C)(=O)Nc1ccccc1 (stereo not given),inactive: -4.75%
19,O=[N+]([O-])c1cc([N+](=O)[O-])c(O)c([N+](=O)[O-])c1.c1ccc(Oc2ccncc2)cc1,inactive: -10.9% [at 57.1 µM]
20,CCOC(=O)c1ccc(NP(C)(=O)Oc2ccc(OC)cc2)cc1 (stereo not given),inactive: -0.794%
21,CCOP(C)(=S)SCC(=O)NC(C)C(=O)O (stereo not given),inactive: 7.17%
22,CP(=O)(Nc1ccccn1)Oc1ccc(Cl)cc1 (stereo not given),inactive: 3.08%
23,CP(=O)(Oc1ccccc1)OC(c1ccccc1)C(F)(F)F (stereo not given),inactive: 2.54%
24,CP(=O)(Nc1ccc(SC(F)(F)F)cc1)Oc1ccc(Cl)cc1 (stereo not given),inactive: -16.8%
25,Cc1cccc(C)c1OP(C)(=O)Nc1ccc(SC(F)(F)F)cc1 (stereo not given),inactive: -7.11% [at 57.1 µM]
26,Cc1cc(C)cc(OP(C)(=O)Nc2ccc(SC(F)(F)F)cc2)c1 (stereo not given),inactive: -6.02% [at 57.1 µM]
27,CCc1ccc(OP(C)(=O)N2CCN(c3ccc([N+](=O)[O-])cc3)CC2)cc1 (stereo not given),inactive: -13.3%
28,CP(=O)(NC(=O)Nc1ccccc1)Oc1ccccc1 (stereo not given),inactive: 12%

row,Structure (SMILES),"activity change, negative = substrate turnover"
1,CCN(CC)CCCOC(=O)C(O)(c1ccccc1)c1ccccc1,inactive: 1.74%
2,Cc1ccc(NP(C)(=O)Oc2ccccc2)c(C)c1 (stereo not given),inactive: 8.36% [at 57.1 µM]
3,COc1ccccc1OP(C)(=O)Nc1ccc(C)cc1 (stereo not given),inactive: -0.793%
4,CCOC(=O)c1ccc(NP(C)(=O)Oc2ccccc2)cc1 (stereo not given),inactive: -0.409%
5,Cc1cc(C)cc(OP(C)(N)=O)c1 (stereo not given),inactive: 3.87% [at 57.1 µM]
6,COc1ccc(OP(C)(=O)Nc2cccc(F)c2)cc1 (stereo not given),inactive: -8.34% [at 57.1 µM]
7,COc1ccccc1OP(C)(=O)Nc1cc(Cl)ccc1C (stereo not given),inactive: 9.93% [at 57.1 µM]
8,O=[N+]([O-])c1cc([N+](=O)[O-])c(Nc2cccnc2)c([N+](=O)[O-])c1,inactive: -17.6%
9,O=[N+]([O-])c1ccc2c(c1)C=Nc1ccccc1O2,inactive: -5.92%
10,Cc1cccc(C)c1OP(C)(N)=O (stereo not given),inactive: 1.77% [at 57.1 µM]
11,CP(=O)(OCCOc1ccccc1)OCCOc1ccccc1,inactive: -2.57%
12,CCCCCCCCCCCCCCCC1C[N+](C)(C)CCOP(C)(=O)O1 (stereo not given),inactive: 6.51% [at 57.1 µM]
13,CP(=O)(Nc1ccc(Cl)cc1Cl)Oc1ccccc1 (stereo not given),inactive: -2.33%
14,Cc1cc(C)cc(OP(C)(=O)Nc2cccc(C(F)(F)F)c2)c1 (stereo not given),inactive: -13.9%
15,COc1ccccc1OP(C)(=O)Nc1ccc(C)c(C)c1 (stereo not given),inactive: -12.3%
16,COc1ccc(OP(C)(=O)Nc2ccccc2Br)cc1 (stereo not given),inactive: 1.92%
17,O=[N+]([O-])c1cc([N+](=O)[O-])c(Nc2ccccn2)c([N+](=O)[O-])c1,inactive: -3.83% [at 57.1 µM]
18,Cc1c(NP(C)(=O)Oc2ccc(C(C)C)cc2)c(=O)n(-c2ccccc2)n1C (stereo not given),inactive: 10.7% [at 57.1 µM]
19,COc1ccccc1OP(C)(=O)Nc1ccc(C)cc1C (stereo not given),inactive: 16.8% [at 57.1 µM]
20,CP(=O)(Nc1ccccn1)Oc1ccccc1 (stereo not given),inactive: -7.17%
21,CCc1ccc(OP(C)(=O)O)cc1,inactive: -1.18%
22,COc1ccccc1OP(C)(=O)Nc1ccc(Br)cc1 (stereo not given),inactive: 2.1%
23,COc1ccc(OP(C)(=O)Nc2ccccn2)cc1 (stereo not given),inactive: -3.79%
24,CN(C)CCOC(=O)C(O)(c1ccccc1)C1CCCC1 (stereo not given),inactive: 2.22%
25,CC(C)(C)c1ccc(OP(C)(=O)O)cc1,inactive: 6.92%
26,COc1ccccc1OP(C)(=O)Nc1ccccc1Br (stereo not given),inactive: -2.57%
27,CP(=O)(Nc1ccc(Cl)cc1)Oc1ccc(F)cc1 (stereo not given),inactive: -2.86%
